The numbers were not newly measured in US10172966B2, “Image guided boronated glucose neutron capture therapy” (priority 2014, dated 2019), which cites them from elsewhere.

One data set concerns colorectal cancer. The note with it: in vivo.
In another data set the test system is bladder cancer. The note with it: in vivo.

In the case of `OCC1O[C@H](O)C(F)[C@@H](O)[C@@H]1O` (stereo partly drawn) [FDG, 18F-2-fluoro-2-deoxy-D-glucose], the SUV values entry in the data set on colorectal cancer is on record as “around 8”; in the data set on bladder cancer it was roughly 7.
